Measurements reported in patent publication US9164075B2, “Glutathione alkylester isotopologue and method for detecting reactive metabolite” (priority 2011, dated 2015).

Conditions: glutathione ethyl ester-d5 used as the trapping agent, rat liver microsomes
Method: NADPH (20 mmol/L, […]) was added to the pre-incubated incubation mixture and a reaction (incubation) was started. The final incubation volume was 1 mL. A sample containing no object compound was used as a control.
After incubation at 37° C. for 60 minutes, a 50 mmol/L aqueous dithiothreitol solution (100 μL, 5 μmol) was added to the incubation mixture, and the resultant mixture was subjected to centrifugation at 10,000 g for 5 minutes. The centrifugation supernatant was added to a solid phase extraction column (OASIS HLB 1 cc, 30 mg) that was pre-washed with 1 mL of methanol and activated with 1 mL of purified water. The column was washed with 1 mL of water and 1 mL of 5% methanol solution, and a reaction product was eluted with 1 mL of methanol. The solvent was removed by evaporation under nitrogen flow, and the residue was dissolved in 150 μL of acetonitrile:water (2:8) to prepare an analysis sample.
An AQCUITY UPLC system (WATERS) was used for separation by chromatography. Aliquots (10 μL) of the prepared analysis sample was injected into an AQCUITY UPLC BEH C18 column (2.1×100 mm, 1.7 μm). The separation by chromatography was performed under gradient conditions shown in the following table at a mobile phase flow rate of 0.5 mL/minute.
The LC column eluate obtained in step 2-1 was introduced into an LTQ XL ion trap mass spectrometer. […]

## O=C(O)Cc1ccccc1Nc1c(Cl)cccc1Cl [diclofenac]
  judgement of reactive metabolite formation: positive
